These results are taken from ChEMBL document CHEMBL1131204, “Flavonoid derivatives as adenosine receptor antagonists: a comparison of the hypothetical receptor binding site based on a comparative molecular field analysis model” (J Med Chem, 1998).

Chains of the proteins cited; added tags and fusions are not shown.
UniProt P0DMS8, whole entry: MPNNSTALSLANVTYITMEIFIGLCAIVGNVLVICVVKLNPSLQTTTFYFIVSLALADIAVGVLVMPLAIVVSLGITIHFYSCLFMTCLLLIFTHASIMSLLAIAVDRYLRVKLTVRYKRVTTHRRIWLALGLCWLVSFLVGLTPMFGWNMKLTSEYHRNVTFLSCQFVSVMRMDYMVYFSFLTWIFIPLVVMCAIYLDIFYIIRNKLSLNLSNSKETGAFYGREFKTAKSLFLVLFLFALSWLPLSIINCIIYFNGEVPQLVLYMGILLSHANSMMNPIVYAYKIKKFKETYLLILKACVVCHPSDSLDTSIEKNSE
UniProt P25099, whole entry: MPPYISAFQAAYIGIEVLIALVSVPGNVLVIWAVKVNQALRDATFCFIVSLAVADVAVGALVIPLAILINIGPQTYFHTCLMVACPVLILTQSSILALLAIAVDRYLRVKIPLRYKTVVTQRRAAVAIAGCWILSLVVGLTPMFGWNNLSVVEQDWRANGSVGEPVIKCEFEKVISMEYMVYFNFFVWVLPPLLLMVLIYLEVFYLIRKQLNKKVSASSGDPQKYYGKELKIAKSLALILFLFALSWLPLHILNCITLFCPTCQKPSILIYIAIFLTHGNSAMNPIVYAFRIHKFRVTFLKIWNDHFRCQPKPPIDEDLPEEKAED
UniProt P30543, whole entry: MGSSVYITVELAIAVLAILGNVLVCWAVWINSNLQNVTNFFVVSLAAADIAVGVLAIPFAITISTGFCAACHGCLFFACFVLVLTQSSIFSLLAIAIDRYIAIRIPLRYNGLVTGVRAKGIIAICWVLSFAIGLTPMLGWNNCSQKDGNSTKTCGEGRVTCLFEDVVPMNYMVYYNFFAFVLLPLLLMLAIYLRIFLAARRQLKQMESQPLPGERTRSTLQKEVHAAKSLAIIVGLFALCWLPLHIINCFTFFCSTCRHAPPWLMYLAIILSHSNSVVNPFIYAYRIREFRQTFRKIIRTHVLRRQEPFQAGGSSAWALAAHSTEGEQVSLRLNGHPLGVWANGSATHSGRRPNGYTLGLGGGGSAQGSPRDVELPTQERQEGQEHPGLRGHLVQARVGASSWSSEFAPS

Test [1] deals with Adenosine receptor A3 (Homo sapiens) (UniProt P0DMS8). Nature of the test: Ability to displace [125I]-AB-MECA binding from adenosine A3 receptor.
In test [2] the target is Adenosine receptor A1 (Rattus norvegicus) (UniProt P25099). Nature of the test: Ability to displace [3H]N6-phenylisopropyladenosine binding from adenosine A1 receptor.
In test [3] the target is Adenosine receptor A2a (Rattus norvegicus) (UniProt P30543). The experiment in a line: Ability to displace [3H]-CGS- 21680 binding from adenosine A2A receptor.

For `CCCOc1c2ccoc2cc2oc(/C=C/c3ccccc3)cc(=O)c12`, the pKi(uM) in test [1] is -0.6; in test [2], -1.6.

As for `CCCOc1cc(OCCC)c2c(=O)c(OCCC)c(-c3ccccc3)oc2c1`, the pKi(uM) is 0.5 in test [1] and -0.04 in test [2].

Regarding `CCOc1ccc(-c2oc3cc(OCC)cc(OCC)c3c(=O)c2OCC)c(OCC)c1`, the pKi(uM) in test [2] was -1.51.

`COc1ccc(-c2oc3cc(OC)cc(OC)c3c(=O)c2OC)c(OC)c1`: the pKi(uM) in test [1] is -0.42; in test [3], -1.67; in test [2] it was -1.44.
